Experimental data from patent publication US4479951A, “1.4;3.6-Dianhydrohexitol nitrates substituted by purine bases, processes for their preparation and pharmaceutical compositions” (Dr. Willmar Schwabe GmbH & Co., priority 1980, dated 1984).

Test system: mongrel dogs
Test: circulatory-pharmacological effectiveness on the narcotised dog, intravenous administration
Assay type: in vivo

## O=[N+]([O-])O[C@H]1CO[C@H]2[C@@H]1OC[C@H]2O[N+](=O)[O-]
120 min after i.v. 1 mg/kg
  APdiast: diastolic aorta pressure: 97.5 mm.Hg
  APsyst: systolic aorta pressure: 161.2 mm.Hg
  BFFem: blood flow in the A. femoralis, referred to 20 kg. body weight: 49.3 mL/min
  HF: heart frequency: 104.2 min⁻¹
  HLL: heart capacity left, referred to 20 kg. body weight: 0.72 W
  HLR: heart capacity right, referred to 20 kg. body weight: 81.5 mW
  HZV: heart minute volume, referred to 20 kg. body weight: 2.9 min⁻¹
  LVEDP: end diastolic pressure in the left ventricle: 8.34 mm.Hg
  PAP: average pressure in the A. pulmonalis: 15.0 ±2.0 mm.Hg
  PRA: pressure in the right atrium: 2.81 mm.Hg
  SV: beat volume, referred to 20 kg. body weight: 28.1 mL
  WAP: pulmonalis resistance, referred to 20 kg. body weight: 0.28 U
  WFem: femoralis resistance, referred to 20 kg. body weight: 0.33 KU
  WTP: total peripheral resistance, referred to 20 kg. body weight: 5.36 U
  dp/dt: rate of pressure increase in the left ventricle: 2118.7 mm.Hg/sec.
150 min after i.v. 1 mg/kg
  APdiast: diastolic aorta pressure: 95.6 mm.Hg
  APsyst: systolic aorta pressure: 161.2 mm.Hg
  BFFem: blood flow in the A. femoralis, referred to 20 kg. body weight: 51.3 mL/min
  HF: heart frequency: 103.7 min⁻¹
  HLL: heart capacity left, referred to 20 kg. body weight: 0.74 W
  HLR: heart capacity right, referred to 20 kg. body weight: 79.7 mW
  HZV: heart minute volume, referred to 20 kg. body weight: 3.0 min⁻¹
  LVEDP: end diastolic pressure in the left ventricle: 7.78 mm.Hg
  PAP: average pressure in the A. pulmonalis: 14.6 ±1.5 mm.Hg
  PRA: pressure in the right atrium: 3.0 mm.Hg
  SV: beat volume, referred to 20 kg. body weight: 28.6 mL
  WAP: pulmonalis resistance, referred to 20 kg. body weight: 0.29 U
  WFem: femoralis resistance, referred to 20 kg. body weight: 0.32 KU
  WTP: total peripheral resistance, referred to 20 kg. body weight: 5.22 U
  dp/dt: rate of pressure increase in the left ventricle: 2025.0 mm.Hg/sec.
180 min after i.v. 1 mg/kg
  APdiast: diastolic aorta pressure: 95.6 mm.Hg
  APsyst: systolic aorta pressure: 161.2 mm.Hg
  BFFem: blood flow in the A. femoralis, referred to 20 kg. body weight: 53.7 mL/min
  HF: heart frequency: 103.7 min⁻¹
  HLL: heart capacity left, referred to 20 kg. body weight: 0.79 W
  HLR: heart capacity right, referred to 20 kg. body weight: 92.4 mW
  HZV: heart minute volume, referred to 20 kg. body weight: 3.2 min⁻¹
  LVEDP: end diastolic pressure in the left ventricle: 7.60 mm.Hg
  PAP: average pressure in the A. pulmonalis: 15.5 ±1.6 mm.Hg
  PRA: pressure in the right atrium: 2.81 mm.Hg
  SV: beat volume, referred to 20 kg. body weight: 30.6 mL
  WAP: pulmonalis resistance, referred to 20 kg. body weight: 0.31 U
  WFem: femoralis resistance, referred to 20 kg. body weight: 0.32 KU
  WTP: total peripheral resistance, referred to 20 kg. body weight: 4.89 U
  dp/dt: rate of pressure increase in the left ventricle: 2043.7 mm.Hg/sec.
Before i.v. 1 mg/kg (v)
  APdiast: diastolic aorta pressure: 95.6 mm.Hg
  APsyst: systolic aorta pressure: 166.9 mm.Hg
  BFFem: blood flow in the A. femoralis, referred to 20 kg. body weight: 44.9 mL/min
  HF: heart frequency: 109.5 min⁻¹
  HLL: heart capacity left, referred to 20 kg. body weight: 0.76 W
  HLR: heart capacity right, referred to 20 kg. body weight: 85.1 mW
  HZV: heart minute volume, referred to 20 kg. body weight: 3.03 min⁻¹
  LVEDP: end diastolic pressure in the left ventricle: 7.69 mm.Hg
  PAP: average pressure in the A. pulmonalis: 14.3 ±1.2 mm.Hg
  PRA: pressure in the right atrium: 2.06 mm.Hg
  SV: beat volume, referred to 20 kg. body weight: 27.7 mL
  WAP: pulmonalis resistance, referred to 20 kg. body weight: 0.31 U
  WFem: femoralis resistance, referred to 20 kg. body weight: 0.39 KU
  WTP: total peripheral resistance, referred to 20 kg. body weight: 5.27 U
  dp/dt: rate of pressure increase in the left ventricle: 2268.7 mm.Hg/sec.
